Measured values taken from US20140287990A1 (published 2014).

B1: GST-Azu 88-113 (GST fused in frame to azurin amino acids 88 to 113) (other)
chain: MSPILGYWKIKGLVQPTRLLLEYLEEKYEEHLYERDEGDKWRNKKFELGLEFPNLPYYIDGDVKLTQSMAIIRYIADKHNMLGGCPKERAEISMLEGAVLDIRYGVSRIAYSKDFETLKVDFLSKLPEMLKMFEDRLCHKTYLNGDHVTHPDFMLYDALDVVLYMDPMCLDAFPKLVCFKKRIEAIPQIDKYLKSSKYIAWPLQGWQATFGGGDHPPKGSGEKDSVTFDVSKLKEGEQYMFFCT
B2: GST-Azu 36-128 (GST fused in frame to azurin amino acids 36 to 128) (other)
chain: MSPILGYWKIKGLVQPTRLLLEYLEEKYEEHLYERDEGDKWRNKKFELGLEFPNLPYYIDGDVKLTQSMAIIRYIADKHNMLGGCPKERAEISMLEGAVLDIRYGVSRIAYSKDFETLKVDFLSKLPEMLKMFEDRLCHKTYLNGDHVTHPDFMLYDALDVVLYMDPMCLDAFPKLVCFKKRIEAIPQIDKYLKSSKYIAWPLQGWQATFGGGDHPPKPGNLPKNVMGHNWVLSTAADMQGVVTDGMASGLDKDYLKPDDSRVIAHTKLIGSGEKDSVTFDVSKLKEGEQYMFFCTFPGHSALMKGTLTLK
notes: Azurin fragment cloned into the BamHI and EcoRI sites of pGEX-5X

Columns and labels:
[1] = target: T1, DC-SIGN (DC-specific intercellular adhesion molecule 3-grabbing nonintegrin) (UniProt Q9NNX6 62-404, limits assumed); test: SPR, DC-SIGN immobilised on CM5, equilibrium response fitted to Req=Rmax/(1+(Kd/C))
T1 construct: Immobilised on a CM5 sensor chip
T1 sequence (looked up): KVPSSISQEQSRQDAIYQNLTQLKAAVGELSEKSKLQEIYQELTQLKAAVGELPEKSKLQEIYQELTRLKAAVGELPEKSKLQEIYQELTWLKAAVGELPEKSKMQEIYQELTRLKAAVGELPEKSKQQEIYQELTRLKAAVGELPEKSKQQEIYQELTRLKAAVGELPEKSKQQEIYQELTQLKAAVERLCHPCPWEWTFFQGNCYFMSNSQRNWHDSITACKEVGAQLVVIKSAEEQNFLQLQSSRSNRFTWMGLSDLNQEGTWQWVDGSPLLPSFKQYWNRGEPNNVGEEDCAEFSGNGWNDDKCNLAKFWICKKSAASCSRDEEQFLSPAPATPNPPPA

CD4 = target: T2, CD4; test: SPR, CD4 immobilised on CM5 (CD4-CM5), equilibrium response fitted to Req=Rmax/(1+(Kd/C))
T2 construct: Bought protein; Used both immobilised on CM5 and as eluent

Row | Binder | Kd [1] [nM] | Kd (CD4) [nM]
1 | B1 | 5.98 | 
2 | B2 |  | 0.34
